Measured values from patent US20090093010A1, “Method of Detecting Kidney Dysfunction” (University of Manitoba, priority 2004, published 2009).

How the values were obtained:
[1] = pH dependence of initial cleavage of intact urinary β2-microglobulin (SELDI-TOF-MS); type: in vitro ADME, human; conditions: patient urine
urine proteases = experiment: Degradation of purified intact β2-microglobulin spiked into urine (estimation of protease amount, SELDI-TOF-MS); type: in vitro ADME, human; conditions: 10 mg/L β2-microglobulin, pH 5, 37° C., in vitro
Protocol: Urine from a healthy individual (column 1) and a patient with an acute clinical rejection episode (column 2) was analysed by SELDI-TOF-MS after collection (row A). The three characteristic protein peak clusters resulting from β2-microglobulin cleavages are marked as shaded areas with roman numbers II, III and IV. These samples were then adjusted to pH 5 and incubated for 16 hours at 37° C. which leads to almost complete degradation of existing intact and cleaved β2-microglobulin forms (row B). Subsequently, equal amounts of purified intact β2-microglobulin (final concentration 10 mg/L) were added to both samples (row C). Samples were again incubated at 37° C. and analysed after one (row D) and six hours (row E).
One hundred μL of a urine sample from a healthy individual (important parameters stated above) and 100 μL of a urine sample from a patient with the protein peak clusters (important parameters stated above) were incubated for 16 hours at 37° C. to degrade existing intact and cleaved β2-microglobulin. Sodium acetate pH 5 (final concentration 166 mM) was added to ensure stable pH, and then purified intact β2-microglobulin (final concentration 10 mg/L) was spiked into each sample. SELDI-TOF-MS analysis was performed immediately and after 1, 2, 4, 6 and 24 hours of incubation at 37° C.

## β2-microglobulin: 99 amino acid protein with one disulfide bridge, 11,731 Da (Swiss-Prot P61769); purified intact form spiked into urine
[1]; pH 3 and 4.5
  Detectability of the intact form of β2-microglobulin after 6 to 24 hours in urine with pH 3 and 4.5: not detectable anymore
[1]; pH 6 and 8
  Detectability of the intact form of β2-microglobulin after 6 to 24 hours in urine with pH 6 and 8: detectable in unchanged intensity
Urine proteases
  Time to complete degradation of β2-microglobulin in a normal urine sample: ≤ 24 h
  Time to complete degradation of β2-microglobulin in a rejection urine sample: ≤ 6 h
